# Test results published in PubChem BioAssay AID697 (Columbia University Molecular Screening Center, 2007).
# Sequences of proteins named here, by UniProt entry; tags and fusion partners are left off.
# UniProt Q9Y2R2, whole entry: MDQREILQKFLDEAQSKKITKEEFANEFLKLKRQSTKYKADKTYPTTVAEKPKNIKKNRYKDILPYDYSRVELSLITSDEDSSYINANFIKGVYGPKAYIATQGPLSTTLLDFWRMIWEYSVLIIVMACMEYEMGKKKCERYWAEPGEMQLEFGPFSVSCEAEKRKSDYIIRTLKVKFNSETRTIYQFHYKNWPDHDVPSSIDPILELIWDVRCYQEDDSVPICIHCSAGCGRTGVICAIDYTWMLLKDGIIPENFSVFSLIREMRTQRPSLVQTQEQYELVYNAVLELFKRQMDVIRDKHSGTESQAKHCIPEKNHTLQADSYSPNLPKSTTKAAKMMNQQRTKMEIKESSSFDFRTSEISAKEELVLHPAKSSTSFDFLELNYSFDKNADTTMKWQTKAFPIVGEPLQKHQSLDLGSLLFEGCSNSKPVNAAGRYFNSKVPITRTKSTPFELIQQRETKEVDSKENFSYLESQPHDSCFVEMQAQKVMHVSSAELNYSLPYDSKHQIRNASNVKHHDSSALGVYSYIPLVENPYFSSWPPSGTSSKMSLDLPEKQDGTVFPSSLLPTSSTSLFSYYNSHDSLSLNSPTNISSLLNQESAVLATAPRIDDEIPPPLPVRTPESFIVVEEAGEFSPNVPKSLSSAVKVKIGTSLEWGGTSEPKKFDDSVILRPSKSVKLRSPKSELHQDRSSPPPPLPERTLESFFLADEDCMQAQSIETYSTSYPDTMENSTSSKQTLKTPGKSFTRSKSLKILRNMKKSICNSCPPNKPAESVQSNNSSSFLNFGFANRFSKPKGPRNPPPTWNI
# This is a selection; strong and weak results do not stand in their true shares. Active and inactive are the calls of the source.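 Rule for the calls: active = activation at 2 µM above a set limit, the mean plus 5 SD (cut at about 37% in these data); inactive = the rest.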
# Molecular target: Tyrosine-protein phosphatase non-receptor type 22 (Homo sapiens) (UniProt Q9Y2R2)
# Assay: enhancers of human PTPN22 catalytic activity – biochemical, DiFMUP fluorescence, 2 µM, primary screen (AID 697)
# Conditions: recombinant LYP, at 2 µM, stronger effect = higher value, 0 = plate median, 100 = signal doubled
row,Structure (SMILES),activation
1,COc1ccccc1OP(C)(=O)Nc1c(C)cccc1C (stereo not given),inactive: 17.3%
2,Cc1nc2ccc3ccccc3c2s1.O=[N+]([O-])c1cc([N+](=O)[O-])c(O)c([N+](=O)[O-])c1,inactive: -4.7%
3,Cc1ccc(C)c(NP(C)(=O)Oc2ccccc2)c1 (stereo not given),inactive: -13.3%
4,Cc1cc(C)cc(OP(C)(=O)Nc2ccccn2)c1 (stereo not given),inactive: 0.1%
5,Cc1cc(C)cc(OP(C)(=O)Nc2ccc(C)cc2C)c1 (stereo not given),inactive: 6%
6,COc1ccc(OP(C)(=O)Nc2cccc(F)c2)cc1 (stereo not given),inactive: -2%
7,CP(=O)(Nc1ccccn1)Oc1ccc(Cl)cc1 (stereo not given),inactive: -2.7%
8,CP(=O)(NC(=O)Nc1ccccc1)Oc1ccccc1 (stereo not given),inactive: 7.1%
9,CP(=S)(Nn1cnnc1)Oc1ccccc1 (stereo not given),inactive: -5.8%
10,CP(=O)(OC12CC3CC(CC(C3)C1)C2)OC12CC3CC(CC(C3)C1)C2,inactive: 9.6%
11,CC(C)(C)c1ccc(OP(C)(=O)O)cc1,inactive: -2.1%
12,CP(=O)(Nc1ccc(Cl)cc1)Oc1ccc(F)cc1 (stereo not given),inactive: 2.6%
13,COc1ccccc1OP(C)(=O)Nc1c(C)n(C)n(-c2ccccc2)c1=O (stereo not given),inactive: 5.4%
14,CP(=O)(Oc1ccccc1)N1CCOC1=O (stereo not given),inactive: -10.9%
15,CCN(CC)CC(O)COC(=O)C(O)(c1ccccc1)C1CCCCC1 (stereo not given),inactive: -4.2%
16,CP(=O)(Nc1ccccn1)Oc1ccccc1 (stereo not given),inactive: 4.3%
17,COc1ccccc1OP(C)(=O)Nc1ccc(C)cc1C (stereo not given),inactive: 2.7%
18,CCc1ccc(OP(C)(=O)O)cc1,inactive: -0.6%
19,Cc1c(NP(C)(=O)Oc2ccc(C(C)C)cc2)c(=O)n(-c2ccccc2)n1C (stereo not given),inactive: -3.6%
20,COc1ccc(OP(C)(=O)Nc2ccccn2)cc1 (stereo not given),inactive: -1%
21,CN(C)CCOC(=O)C(O)(c1ccccc1)C1CCCC1 (stereo not given),inactive: 13.6%
22,Cc1nc2ccc3ccccc3c2o1.O=[N+]([O-])c1cc([N+](=O)[O-])c(O)c([N+](=O)[O-])c1,inactive: 6.2%
23,COc1ccccc1OP(C)(=O)Nc1ccc(C)c(C)c1 (stereo not given),inactive: -2.9%
24,CP(=O)(Nc1ccccc1)Oc1ccc(F)cc1 (stereo not given),inactive: -5.4%
25,CCN(CC)CCCOC(=O)C(O)(c1ccccc1)C1CCCCC1 (stereo not given),inactive: -3.3%
26,CP(=O)(Nc1ccccc1F)Oc1ccccc1 (stereo not given),inactive: 0.2%
27,CP(=O)(Nc1ccc2c(c1)OCCO2)Oc1ccccc1 (stereo not given),inactive: 12.3%
28,CCOP(C)(=S)SCC(=O)NC(C)(CC)C(=O)O (stereo not given),inactive: 3.8%
29,CN(C)CCOC(=O)C(O)(c1ccccc1)C1CCCCC1 (stereo not given),inactive: 0.4%
30,COc1ccc(OP(C)(=O)Nc2cccc(Br)c2)cc1 (stereo not given),inactive: -5.3%
